{
  "source": "patent US11702443B2",
  "about": "“Therapeutic agents and methods” (Pop Test Oncology LLC, priority 2016, dated 2023)",
  "experiment": "Solubility",
  "data": [
    {"substance": "Tetrakis{3-[(tricyclo[3.3.1.1^3,7]decan-1-ammonio)methyl]benzyl}ammonium pentachloride [PT162]", "values": [
      {"measurement": "Solubility in water", "value": "water-soluble"}
    ]}
  ]
}
